Values quoted from earlier work as cited in patent US20170042890A1, “METHODS OF REDUCING DECLINE IN VITAL CAPACITY” (Cytokinetics, Inc., priority 2014, published 2017).

Tested on: ALS
Settings: Lacomblez 1996; cited from earlier work

Nc1nc2ccc(OC(F)(F)F)cc2s1 [riluzole]
Prolongation of survival or time to tracheostomy versus placebo: 2-3 months
